For this assay, the target named is IgG1 (=I.V.-Globulin SN). Nature of the assay: SPR; BIACORE T200; I.V.-Globulin SN, HMC001 and HM15136 immobilised on a CM5 chip (target 3000 RU); C1q flowed over at 3.125-50 nM in running buffer (HBS-EP); steady-state affinity fit. A general note: Surface plasmon resonance follows binding to a sensor surface in real time, without labels.

The chains behind the UniProt entries cited, without tags or fusion partners. Residues count along the entry.
UniProt P02745, 23-245: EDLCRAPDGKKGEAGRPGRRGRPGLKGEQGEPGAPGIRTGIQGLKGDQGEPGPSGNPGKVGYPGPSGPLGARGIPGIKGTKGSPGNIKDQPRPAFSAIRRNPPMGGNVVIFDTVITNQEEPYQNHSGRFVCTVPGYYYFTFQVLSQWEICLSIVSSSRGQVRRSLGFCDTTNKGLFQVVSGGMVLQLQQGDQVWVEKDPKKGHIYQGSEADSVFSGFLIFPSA
human C1q, the first subcomponent of the C1 complex of the classical pathway of complement activation, UniProt P02746, 28-253: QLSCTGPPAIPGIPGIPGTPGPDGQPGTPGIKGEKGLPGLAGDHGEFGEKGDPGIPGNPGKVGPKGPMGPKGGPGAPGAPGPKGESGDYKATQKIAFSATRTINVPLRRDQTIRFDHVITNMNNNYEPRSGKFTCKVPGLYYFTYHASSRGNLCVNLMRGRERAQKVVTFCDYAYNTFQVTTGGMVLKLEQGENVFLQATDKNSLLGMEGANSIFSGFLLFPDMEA
human C1q, the first subcomponent of the C1 complex of the classical pathway of complement activation, UniProt P02747, 29-245: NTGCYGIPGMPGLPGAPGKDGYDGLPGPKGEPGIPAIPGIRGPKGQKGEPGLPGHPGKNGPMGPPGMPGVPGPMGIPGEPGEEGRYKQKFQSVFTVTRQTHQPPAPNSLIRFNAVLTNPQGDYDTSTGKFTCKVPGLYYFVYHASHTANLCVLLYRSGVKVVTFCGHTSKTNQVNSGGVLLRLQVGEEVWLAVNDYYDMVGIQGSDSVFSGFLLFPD

What is called Kd is the equilibrium constant for the complex coming apart. A higher Kd goes with lower affinity.

For the substance “human C1q, the first subcomponent of the C1 complex of the classical pathway of complement activation (from UniProt P02745 23-245; P02746 28-253; P02747 29-245)”, the dissociation constant (Kd) amounted to 31.1 nM.

For the origin of these results see paper PMC9537296, “A novel glucagon analog with an extended half-life, HM15136, normalizes glucose levels in rodent models of congenital hyperinsulinism” (Scientific Reports, 2022).
